# According to patent US5214030A, “Calcitonin gene-related peptides for treating erectile dysfunctions” (priority 1989, dated 1993):
# Tested on: Cynomolgus monkeys
# Assay: intracavernous injection in Cynomolgus monkeys under ketamine anaesthesia (tumescence, intracavernal pressure, cavernal artery flow, blood pressure)
# Format: in vivo, Cynomolgus monkey
# Set-up: key to maximum tumescence and elongation (class): E 0=no tumescence; E 1=slight tumescence; E 2 =partial tumescence; E 3=complete tumescence
# Conditions: for intracavernous pressure (average): 500 ng
# Procedure: The necessary in vivo experiments were carried out on seven Cynomolgus monkeys with a body weight of from 4.3 to 8.3 kg under ketamine anaesthesia (30 mg/kg intramuscular). The monkeys were placed in the dorsal position. Under sterile conditions, a 21-G butterfly cannula was placed bilaterally into the distal erectile tissue. For the recordal of the intracavernal pressure, a needle was connected with a Statham pressure converter (model P23 BC) and the other used for the intracavernous injection or perfusion. The penile tumescence was monitored visually by two observers and recorded. A classification of the tumescence took place according to the parameters: E 0=no tumescence; E 1=slight tumescence; E 2 =partial tumescence; E 3=complete tumescence. A flowthrough measurement of the cavernal arteries was carried out by means of ultrasonics on four monkeys. The pulse and blood pressure were measured by means of Doppler measurement (Parks Medical Electronics) on the radial artery with the help of a paediatric blood pressure cuff.
# In a pilot study, 50, 500 and 2500 ng h-CGRP (Sigma Chemical Co., St. Louis, Mo.) were injected intracavernously into two monkeys. […] Therefore, the further investigations were carried out with dosages of 500 ng and, for ensuring the reproducability, repeated on a second day.
substance,measurement,setting,value
"h-CGRP: human calcitonin gene-related peptide of formula (I), obtained from Sigma Chemical Co.",time after injection at which arterial flow could no longer be ascertained (average),500 ng intracavernously,49 min
same,time after injection up to which maximum tumescence lasted,500 ng intracavernously,up to 15 minutes
same,time for intracavernous pressure to decrease to the initial value,500 ng intracavernously,≤ 36 min
same,time of maximum flow rate of the cavernous artery after injection (average),500 ng intracavernously,4 min
same,time to maximum tumescence after injection,500 ng intracavernously,4 min
same,time until no difference between tumescence before and after injection (average),500 ng intracavernously,32 min
same,arterial flow after intracavernous injection,"500 ng intracavernously, flow not measurable before injection",an increase of the arterial flow was observed
same,maximum tumescence and elongation (class),"500 ng intracavernously, from 4 minutes up to 15 minutes after injection",E 3
same,intracavernous pressure (average),"90 to 120 seconds after the injection, before injection average 34",78 cm H2 O
same,intracavernous pressure (average),"after 4 minutes, decreased within 1 minute",47 cm H2 O
same,penile tumescence,"pilot study, 50 ng intracavernously, two monkeys","only a slight, brief tumescence"
same,systemic blood pressure,"pilot study, 2500 ng intracavernously",below 35 cm H2 O
